From patent US12065445B2, “CDK2 inhibitors and methods of using the same” (Cedilla Therapeutics, Inc., priority 2021, dated 2024) come the findings set out here.

The structures appear in SMILES notation.

In one assay the test system is Kuramochi cells. The experiment in a line: BrdU Cell Proliferation Assay. The note with it: read-out: BrdU - KURAMOCHI.1: IC50. The protocol:
A BrdU assay was used as a measure of proliferation based on the DNA replication process of proliferating cells. BrdU, a pyrimidine analog, is added to the cell culture and incorporated into the DNA of proliferating cells. The presence of the BrdU analog was then measured through a colorimetric ELISA. After fixation and permeabilization of cells, peroxidase-conjugated antibody recognizing BrdU is added and allowed to incubate, followed by thorough washing to remove unbound antibody. In order to quantify the amount of bound antibody, peroxidase substrate is added and produces a color that can be measured at 450 nm.
On day −1, Kuramochi cells (Sekisui XenoTech JCRB0098) were seeded at 2,000 cells/well in columns 2-12 of a 96 well plate (Corning, CLS3596) in 150 μL media and allowed to adhere overnight at 37 degree with 5% CO2.
On day 0, the source plate was prepared by adding 10 mM compounds and performing 3-fold serial dilutions for a 10-point dose response of each compound. Using a multichannel pipette, 2 μL of the contents of the source plate were stamped into an intermediate plate with 500 μL of RPMI 1640 Media, GlutaMAX Supplement (Life Technologies, 61870127) in each well of a Nunc 96 DeepWell™ plate, non-treated 96 DeepWell plate, 2 mL/well, sterile, natural, 60/cs (Sigma Z717274) and mixed thoroughly. 50 μL from each well of this intermediate plate were added to 4 wells of a 96-well plate with previously seeded Kuramochi cells.
On day 4, the plates were developed using the BrdU ELISA Cell Proliferation Assay according to manufacturer's instructions (Roche, 11647229001). Briefly, BrdU was diluted 1:100 in Gibco®, OptiMEM® and 20 μL/well was added, shaken for 10 minutes at 350 rpm, and then returned to the incubator for 1 hour. Following incubation, the medium was discarded, and the cells were fixed by adding 200 μL of Fix/Denature solution. The anti-BrdU peroxidase antibody was diluted 1:1000 in OptiMEM, added at 100 μL/well, and incubated while shaking (350 rpm) for one hour. Three washes with PBS were performed to remove any unbound antibody, followed by the addition of 100 μL of substrate solution to each well. 25 μL/well of 1M sulfuric acid solution was then added to halt the reaction, and plates were read out using an Envision spectrophotometer (Perkin Elmer) set to read 450 nm absorbance. Background absorbance values from empty wells were subtracted from all samples and then normalized to DMSO treated wells.

Another assay has as its target CDK2/Cyclin E1 (Homo sapiens, UniProt P24941). Nature of the assay: CDK2/Cyclin E1 Caliper Assay (LabChip EZ Reader mobility shift). The note with it: read-out: Caliper Assay (CDK2/CCNE1): IC50. The protocol:
Inhibition of CDK2/Cyclin E1 activity in the presence of compounds of the present disclosure was evaluated using a Caliper LabChip® EZ Reader mobility shift assay. In the assay, CDK2/Cyclin E1 (Eurofins, 14-475) catalyzed the phosphorylation of a fluorescently tagged peptide 5-FAM-QSPKKG-CONH2 (PerkinElmer, FL Peptide 18) which induced a difference in capillary electrophoresis mobility. The peptide substrate and product were measured, and the conversion ratio was used to determine the inhibition (as % activity and IC50 values) of CDK2/Cyclin E1. Reactions contained 50 mM HEPES pH 7.5, 10 mM MgCl2, 1 mM EDTA, 2 mM DTT, 0.01% Brij35, 0.5 mg/mL BSA, 0.1% DMSO, 2.5 nM CDK2/Cyclin E1, 100 μM ATP, and 1.5 μM fluorescent peptide substrate.
Dose titrations of inhibitors in 100% DMSO were combined with 3.25 nM CDK2/Cyclin E1 and 130 μM of ATP in reaction buffer. The mixtures were incubated for 30 minutes before the addition of fluorescent peptide substrate to initiate the kinase reaction. The final conditions were 2.5 nM CDK2/Cyclin E1, 100 μM ATP, and 1.5 μM fluorescent peptide. The reactions were stopped after 100 minutes with the addition of EDTA (400 mM final EDTA concentration). The stopped reactions were analyzed on a Caliper LabChip® EZ Reader II. The conversion ratios were normalized to yield % activity, plotted against compound concentration, and fit to a four-parameter equation to determine the IC50 for each compound.

Assay [1] concerns Kuramochi cells labeled with mApple-H2B. Nature of the assay: IncuCyte Cell Proliferation Assay. The note with it: read-out: IncuCyte Assay: IC50, 72 hours. The protocol:
IncuCyte® assay was used to measure the effect of disclosed compounds on cell proliferation. Fluorescent microscopy images of cells were taken immediately after compound treatment and 72 hours later. Image analysis software was used to obtain cell counts as a function of compound concentration. Kuramochi cells labeled with mApple-H2B were seeded on 384-well assay-ready plates. Plates were placed in an IncuCyte® (Sartorius) and scanned at 0 and 72 hours. IncuCyte® software was used to count the number of fluorescent nuclei in each well. The fold change in cell count from 0 to 72 hours in wells treated with increasing compounds concentrations (10 pts, ½ log dilution, 20 μM top concentration) was normalized to DMSO control wells. The normalized cell counts were fit with dose response curves and a […] was calculated.

Take `CNC(=O)[C@@H](NC(=O)[C@H]1CN(C(=O)c2cnn(C)c2)CC12CN(C(=O)CC1CC1)C2)[C@@H](C)OCc1ccccc1`: the IC50 in the assay with Kuramochi cells and at CDK2/Cyclin E1 was greater than 10 µM throughout.

Take `CNC(=O)[C@@H](NC(=O)[C@H]1CN(C(=O)c2cnn(Cc3ccccc3)c2)CC12CN(C(=O)Cc1ccc(OC(C)C)cc1)C2)[C@@H](C)OCc1ccccc1`: the IC50 in the assay on Kuramochi cells and at CDK2/Cyclin E1 was greater than 10 µM each time.

On to `CNC(=O)[C@@H](NC(=O)[C@@H]1CN(C(=O)c2cnn(C)c2)CC12CN(C(=O)CC1CC1)C2)[C@@H](C)OCc1ccccc1`, for which the IC50 in the assay with Kuramochi cells and on CDK2/Cyclin E1 was greater than 10 µM throughout.

Regarding `CNC(=O)[C@@H](NC(=O)[C@@H]1CN(C(=O)c2cnn(Cc3ccccc3)c2)CC12CN(C(=O)CC1CCCCC1)C2)[C@@H](C)OCc1ccccc1`, the IC50 with Kuramochi cells and on CDK2/Cyclin E1 was greater than 10 µM each time.

As to `C[C@@H](OCc1ccccc1)[C@H](NC(=O)C1CN(C(=O)c2cnn(Cc3ccccc3)c2)CC12CN(C(=O)[C@H]1CC1(C)C)C2)C(=O)N1CC(C)(C)C1` (stereo partly drawn), the IC50 in the assay with Kuramochi cells fell in the range of 0.5 to 5 µM; at CDK2/Cyclin E1 it was 0.01 to 0.1 µM; in assay [1] it was 5 to 20 µM.

Consider `CNC(=O)[C@@H](NC(=O)[C@H]1CN(C(=O)c2cnn(Cc3ccccc3)c2)CC12CN(C(=O)CC1CCCCC1)C2)[C@@H](C)OCc1ccccc1`, for which the IC50 in the assay with Kuramochi cells and on CDK2/Cyclin E1 was greater than 10 µM each time.

With `CNC(=O)[C@@H](NC(=O)[C@@H]1CN(C(=O)c2cnn(Cc3ccccc3)c2)CC12CN(C(=O)Cc1ccc(OC(C)C)cc1)C2)[C@@H](C)OCc1ccccc1`, the IC50 in the assay on Kuramochi cells and on CDK2/Cyclin E1 was greater than 10 µM each time.
